Experimental data as given in US6191126A, “Topical use of κ opioid agonists to treat ocular pain” (Alcon Laboratories, Inc., priority 1999, dated 2001).

System: formalin-induced ocular pain (blinking)
Experiment: formalin-induced model of ocular pain in the rat (inhibition of blinking after topical ocular dosing)
Type: in vivo
Details: 0.1% w/v, 20 μL topical ocular, 1-30 minutes before 5 μg formalin

CN(C(=O)Cc1ccc(Cl)c(Cl)c1)[C@H]1CC[C@@]2(CCCO2)C[C@@H]1N1CCCC1
% Inhibition (of blink count in first minute vs vehicle): 68%

CN(C(=O)Cc1ccccc1)[C@H]1CC[C@@]2(CCCO2)C[C@@H]1N1CCCC1
% Inhibition (of blink count in first minute vs vehicle): 63%

CN(C(=O)Cc1ccc(Cl)c(Cl)c1)[C@@H]1CCCC[C@H]1N1CCCC1 (relative stereo)
% Inhibition (of blink count in first minute vs vehicle): 64%
